Test results as given in US10703755B2, “Substituted purine derivative” (SUMITOMO DAINIPPON PHARMA CO., LTD., priority 2016, dated 2020).

Amino acid sequences for entries named in this document (tags omitted). Residues count along the entry.
UniProt Q9NYK1, 27-1049 limits assumed: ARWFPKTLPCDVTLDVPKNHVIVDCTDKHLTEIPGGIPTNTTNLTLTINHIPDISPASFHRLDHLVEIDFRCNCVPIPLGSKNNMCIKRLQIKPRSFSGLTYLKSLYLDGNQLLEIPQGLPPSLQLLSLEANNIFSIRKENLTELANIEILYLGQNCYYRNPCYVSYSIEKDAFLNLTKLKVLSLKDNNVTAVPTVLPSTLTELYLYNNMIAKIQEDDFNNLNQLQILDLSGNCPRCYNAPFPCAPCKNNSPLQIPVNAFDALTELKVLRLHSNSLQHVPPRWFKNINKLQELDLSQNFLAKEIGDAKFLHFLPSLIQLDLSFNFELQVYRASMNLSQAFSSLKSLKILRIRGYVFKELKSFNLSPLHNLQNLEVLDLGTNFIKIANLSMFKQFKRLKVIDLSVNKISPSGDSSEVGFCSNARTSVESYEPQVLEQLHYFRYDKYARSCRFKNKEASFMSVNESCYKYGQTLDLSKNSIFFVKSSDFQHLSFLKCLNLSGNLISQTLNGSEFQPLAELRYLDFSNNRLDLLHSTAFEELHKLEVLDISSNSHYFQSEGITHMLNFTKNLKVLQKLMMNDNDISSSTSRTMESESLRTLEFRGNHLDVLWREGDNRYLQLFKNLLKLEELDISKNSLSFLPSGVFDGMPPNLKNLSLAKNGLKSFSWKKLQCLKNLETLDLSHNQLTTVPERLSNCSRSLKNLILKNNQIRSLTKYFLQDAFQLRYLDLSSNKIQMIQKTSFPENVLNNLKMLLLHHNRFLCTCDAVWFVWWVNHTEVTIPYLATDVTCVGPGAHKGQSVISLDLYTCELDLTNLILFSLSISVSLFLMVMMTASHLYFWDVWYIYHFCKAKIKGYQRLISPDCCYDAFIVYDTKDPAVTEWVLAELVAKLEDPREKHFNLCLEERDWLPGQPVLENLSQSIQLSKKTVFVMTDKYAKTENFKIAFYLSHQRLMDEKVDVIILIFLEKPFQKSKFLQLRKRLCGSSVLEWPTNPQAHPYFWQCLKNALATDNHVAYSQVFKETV

Target: human TLR7 (Homo sapiens (Human), UniProt Q9NYK1)
Assay: Test for evaluating the inhibition of the activation of human TLR7 (SEAP reporter, TLR7/NF-κB/SEAPorter HEK293 cell)
Format: cell-based
Conditions: for IC50: read-out: TLR7 IC50, R-848 200 nmol/L, SEAP reporter

SMILES: CCOc1nc(C)c2nc(-c3cncc(F)c3)n(Cc3cnn(CCCN4CCN(C)CC4)c3)c2n1
- inhibitory effect against TLR7 in the test for evaluating inhibition of the activation of TLR7 (R-848 200 nmol/L, SEAP activity, result in words): potent inhibitory effect against TLR7
- IC50: 28 nM

SMILES: COCCOc1nc(C)c2nc(-c3cncc(F)c3)n(Cc3ccc(CN(C)C)cc3)c2n1
- IC50: 1000 nM

SMILES: CCCCOc1nc(N)c2nc(-c3cncc(F)c3)n(Cc3cccc(CN(C)C)c3)c2n1
- IC50: 500 nM

SMILES: CCOc1nc(C)c2nc(-c3cncc(F)c3)n(Cc3ccc(CN(C)C)cc3)c2n1
- IC50: 160 nM

SMILES: CCOc1nc(C)c2nc(-c3cncc(F)c3)n(Cc3ccc(OC4CN(C)C4)nc3)c2n1
- IC50: 1400 nM
